Molecular target: T1, TYRO3 (RSE) (Homo sapiens, UniProt Q06418)
T1 sequence (Q06418 41-890): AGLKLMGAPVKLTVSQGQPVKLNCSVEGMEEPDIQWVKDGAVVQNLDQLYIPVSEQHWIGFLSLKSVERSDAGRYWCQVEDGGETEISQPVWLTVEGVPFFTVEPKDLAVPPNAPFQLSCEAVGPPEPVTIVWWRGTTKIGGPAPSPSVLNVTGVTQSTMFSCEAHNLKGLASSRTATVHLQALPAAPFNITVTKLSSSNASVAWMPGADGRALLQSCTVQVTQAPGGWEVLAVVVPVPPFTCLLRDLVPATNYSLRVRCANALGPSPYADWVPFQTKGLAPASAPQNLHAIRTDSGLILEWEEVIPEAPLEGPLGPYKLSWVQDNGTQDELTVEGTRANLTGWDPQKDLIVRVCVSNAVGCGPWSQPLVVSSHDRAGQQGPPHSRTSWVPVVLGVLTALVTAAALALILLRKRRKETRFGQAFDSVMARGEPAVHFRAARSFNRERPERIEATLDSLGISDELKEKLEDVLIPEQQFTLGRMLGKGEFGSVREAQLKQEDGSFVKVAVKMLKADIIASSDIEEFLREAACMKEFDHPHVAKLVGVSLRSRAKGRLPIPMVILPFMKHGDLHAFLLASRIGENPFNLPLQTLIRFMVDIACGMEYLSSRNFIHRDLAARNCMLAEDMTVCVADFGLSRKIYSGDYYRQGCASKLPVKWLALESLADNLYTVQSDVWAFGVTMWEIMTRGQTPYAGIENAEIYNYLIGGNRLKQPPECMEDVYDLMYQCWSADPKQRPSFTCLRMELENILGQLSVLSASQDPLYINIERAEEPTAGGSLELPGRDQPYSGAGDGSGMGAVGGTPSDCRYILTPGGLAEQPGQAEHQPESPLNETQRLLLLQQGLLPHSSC
Assay: Tyrosine kinase inhibition assay
Assay type: biochemical
Details: read-out: percent inhibition
Method: Tyrosine kinase inhibition assays were performed at ThermoFisher Life Technologies (Madison, WI, USA) using standard protocols (SelectScreen Biochemical Profiling Service, Thermo Fisher Scientific). ATP concentrations used were at the apparent Km. Test compounds were screened in 1% dimethylsulffoxide (DMSO) (final concentration) in the well. For 10-point titrations, 3-fold serial dilutions were conducted from the starting concentration of […]. All Peptide/Kinase Mixtures were diluted to a 2× working concentration in the appropriate Kinase Buffer. All ATP Solutions were diluted to a 4× working concentration in Kinase Buffer (50 mM HEPES pH 7.5, 0.01% BRIJ-35, 10 mM MgCl2, 1 mM EGTA). The apparent ATP Km was previously determined using a Z′-LYTE assay. The Development Reagent was diluted in Development Buffer.
The inhibition activities of compounds were determined in biochemical assays using single concentration (1.0 μM) measurements. The results were provided as percent inhibition values. […] 99 different tyrosine kinases were used.

COc1cc2nccc(Oc3ccc(NC(=O)C4(C(=O)Nc5ccc(F)cc5)CC4)cc3)c2cc1OC [Cabozantinib, reference compound]
inhibition at 1 µM: 99%

— patent US20250120967A1, “TYROSINE KINASES INHIBITORS AND USES THEREOF” (GREAT NOVEL THERAPEUTICS BIOTECH & MEDICALS CORPORATION, priority 2023, published 2025)
